In this experiment the test system is cellular ATP levels.

Several values for one entry are separate records, joined by “and”; a condition that tells them apart may be missing. Identical values can stand only once. Like-named read-outs stand apart in the source and are kept apart here.

For `C[C@]12CC[C@@H](O)C[C@H]1CC[C@@H]1[C@@H]2CC[C@]2(C)C(=O)CC[C@@H]12` [3-alpha-hydroxy-5-beta-androstan-17-one], the ATP turned out to be 0.314. Still for that read-out and setting: then `COc1ccc2cc([C@@H](C)C(=O)[O-])ccc2c1.[Na+]` [(R)-naproxen sodium salt], with 0.405; and `CC(=O)[O-].CC(=O)[O-].[Cd+2]` [cadmium acetate], with 0.954. The same measure, in the same setting: to `COC(=O)[C@H](c1ccccc1Cl)N1CCc2sccc2C1` [clopidogrel] belongs 1.367; to `NCCc1ccc(O)c(O)c1` [dopamine], 0.276; to `NC(N)=Nc1nc(CSCCC(N)=NS(N)(=O)=O)cs1` [famotidine], 1.389.

In turn, `CN1CCC[C@H]1c1cccnc1` [nicotine] came in with an ATP of 0.808.

With `Oc1cccc2cccnc12` [oxyquinoline], the ATP was found to be 0.574. The same measure, in the same setting: to `C[n+]1ccccc1/C=N/O` [pralidoxime] belongs 0.594 and 0.365; to `NCCCCN` [putrescine], 1.023. The same measure, in the same setting: to `CN1CCCN=C1/C=C/c1cccs1` [pyrantel pamoate] belongs −0.426.

Turning to `[O-][n+]1ccccc1[S-].[O-][n+]1ccccc1[S-].[Zn+2]` [pyrithione zinc], the “ATP (composite Z-score vs DMSO)” value was −8.322. On to (−)-asarinin, for which the ATP (composite Z-score vs DMSO, Conc 20 μM) stood at 0.276. L-methionine sulfoximine returned an ATP of 0.202. For the compound mepartricin, the “ATP (composite Z-score)” value (Conc 20 μM, normalized score vs mock-treated (DMSO) wells) is listed as −0.392. Consider pyrantel tartrate, for which the ATP amounted to 0.280. The same measure, in the same setting: then trisodium ethylenediamine tetracetate, with 0.328.
